Experiment [1] addresses T1, Sphingosine 1-phosphate receptor 1 (Homo sapiens, UniProt P21453). Nature of the experiment: Displacement of [33P]-SIP from human recombinant S1P1 expressed in CHO cell membranes measured after 45 mins by radioligand competitive binding analysis. Also noted: species or system Cell membrane.
For experiment [2], the target named is T1, Sphingosine 1-phosphate receptor 1.
Experiment [3] has the same target. The source holds these as a separate data set.
The target is the same in experiment [4]. The source holds these as a separate data set.

Sequences of proteins named here, by UniProt entry; tags and fusion partners are left off.
UniProt P21453, whole entry: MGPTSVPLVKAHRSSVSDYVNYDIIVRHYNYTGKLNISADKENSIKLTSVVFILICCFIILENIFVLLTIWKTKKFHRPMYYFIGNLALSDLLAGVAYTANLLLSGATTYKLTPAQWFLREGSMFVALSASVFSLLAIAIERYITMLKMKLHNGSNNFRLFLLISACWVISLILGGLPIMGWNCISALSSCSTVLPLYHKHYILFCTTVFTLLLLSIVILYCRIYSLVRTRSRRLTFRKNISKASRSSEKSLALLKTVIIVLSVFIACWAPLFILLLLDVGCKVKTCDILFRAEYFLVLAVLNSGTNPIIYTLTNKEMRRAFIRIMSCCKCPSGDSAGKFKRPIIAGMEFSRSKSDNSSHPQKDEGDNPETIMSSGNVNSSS

Turning to `COc1ccccc1CC[C@@H]1CCc2cc([C@H]3CC[C@](N)(COP(=O)(O)O)C3)ccc2C1`, the IC50 – broadly, the concentration at which inhibition is half-maximal – in experiment [1] is 0.014 nM. Besides, the figures for the EC50 in experiment [2], in experiment [3] and in experiment [4] were 0.008 nM, 0.11 nM and 3.5 nM, respectively.

Source of the values: ChEMBL document CHEMBL4765241, “Identification and Preclinical Pharmacology of ((1 R,3 S)-1-Amino-3-(( S)-6-(2-methoxyphenethyl)-5,6,7,8-tetrahydronaphthalen-2-yl)cyclopentyl)methanol (BMS-986166): A Differentiated Sphingosine-1-phosphate Receptor 1 (S1P) Modulator Advanced into Clinical Trials” (J Med Chem, 2019).
